Assay outcomes: PubChem BioAssay, Broad Institute
Compounds with a hit are over-represented: about 1.3% of the library has one in this group of screens.
PglD inh = PglD (C. jejuni) enzyme inhibition; 360,000 compounds, 0.098% hits; inhibition, % at 12.5 µM; purified PglD enzyme, DTNB colorimetric CoA detection; in the data active means inhibition above about 16%, passing the limit was not always enough
LGR2 inh = inhibitors of bursicon-induced Drosophila LGR2 receptor cAMP signaling. HEK293 LGR2, CRE-luciferase, bursicon-stimulated, 4 h. inhibition, % at 9.99 µM. 380,000 compounds, 0.35% hits. AID 720647;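 active means drop in luminescence signal, shown as inhibition above about 50% in the replicate tests, limit read from the data, passing the limit was not always enough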;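 further: agonist challenge used bursicon conditioned medium at about half maximal strength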
Yeast UUG start = yeast start codon fidelity modulation; activity score, % at 18.7 µM; actives 0.13% (n = 350,000); S. cerevisiae UUG-firefly luciferase reporter, luminescence/redox ratio; AID 602363;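 active means replicate mean at a twofold rise or more, about +100% in these data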;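 further: firefly luciferase made from a UUG start codon reports start codon fidelity; reporter light over untreated wells divided by growth signal over untreated wells; some hits fall short of that in this replicate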
EWS-Fli block = blocks EWS/Fli oncoprotein-driven transcription; A673 NR0B1-luciferase reporter, viability-normalised; inhibition, % at 12.6 µM; 350,000 compounds, 0.67% hits; AID 651661;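 active means mean inhibition of at least 50% after viability correction, with every replicate also passing that limit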;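 further: firefly luciferase signal divided by Alamar Blue viability fluorescence both relative to DMSO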
miR-122 sensor = inhibitors of miR-122 in Huh7 cells; AID 602342; Huh7 miR-122 Renilla luciferase sensor, 48 h; neutral wells = 0, positive control = 100; 340,000 compounds, 0.3% hits; activation (reporter increase), % at 12.5 µM;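 active means mean replicate activation score at least 90 and every replicate individually at or above 90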;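 further: higher luciferase means less miR-122 activity so hits act as miR-122 inhibitors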
CFTR F508del cor = correctors of CFTR F508del function in bronchial epithelial cells | 350,000 compounds, 0.36% hits | CFBE cells, YFP halide quenching; stimulated with forskolin plus potentiator P3; % fluorescence drop versus neutral controls | AID 720511 | activity (quench increase), % at 7.58 µM;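 active means mean added fluorescence quench of at least 8% versus neutral control, with both replicates also reaching 8%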;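 further: cells transiently co-express mutant CFTR-F508del with the halide-sensitive YFP; corrector assay measuring rescue of mutant channel to the surface after 24 h compound exposure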
DNA binding = DNA binding small molecules | AC35, µM (top dose mostly 68 µM), without a hit: at the top dose activity change, negative = DNA binding | 640 compounds, 2% hits | shares compounds with EWS-Fli block | salmon sperm DNA acridine orange fluorescence polarization;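 active means fitted curve reaches a 35% signal fall AC35 below twice the sample's top valid tested dose, actives reach about 48 µM in these data; inactive means the rest, including activity in the rising direction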;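 further: lower polarization ratio signals compound binding to DNA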
* marks the source's active call; other numbers are inactive results; . = no result; [ ] = remark or other dose.

canonical_smiles	PglD inh	LGR2 inh	Yeast UUG start	EWS-Fli block	miR-122 sensor	CFTR F508del cor	DNA binding
CC(=O)NC(NC(=S)Nc1ccc(N=Nc2ccccc2)cc1)C(Cl)(Cl)Cl (configuration not stated)	1	.	-22	.	-6	.	.
CC(C)(C)C(=O)Nc1ccc(N=Nc2ccccc2)cc1	3	72*	-51	59*	-2	-2	-5%
CN(C)S(=O)(=O)c1cccc(N=C2NN=C(c3ccccc3)CS2)c1	.	11	.	18	.	.	.
COc1ccc(C2=NNC(=Nc3cc(S(=O)(=O)N(C)C)ccc3C)SC2)c(OC)c1	4	-6	-17	52*	-7	0	-19%
Cc1ccc(NC(=O)CCN2CCCCC2)cc1	4	10	-1	66*	3	-1	-2%
CN1CCN(CCCNC(=O)c2ccc(/C=C3\Oc4ccccc4N(Cc4ccccc4F)C3=O)cc2)CC1	-7	-12	-3	20	.	-4	.
Cc1cccc(CN2C(=O)/C(=C\c3ccc(C(=O)NCCCN4CCN(C)CC4)cc3)Oc3ccccc32)c1	2	9	19	65*	-2	1	-13%
COCCn1c(N)c(N(Cc2ccccc2)C(=O)c2cc(=O)[nH]c3ccccc23)c(=O)[nH]c1=O	0	-4	-6	4	-7	-10	.
O=S(=O)(NCCc1ccc(F)cc1)c1ccc(F)cc1Br	3	16	-8	-1	81	-2	.
CC(=O)Nc1ccc(NC(=O)COC(=O)C2CCCCC2)cc1	3	-19	-15	4	5	-2	.
O=C(Nc1ccc(F)cc1F)NC1CCCc2ccccc21 (configuration not stated)	5	12	5	-1	1	-1	.
O=C(NC1CCCCC1)c1cc(-c2cccs2)on1	-5	-44	-8	-97	-8	-3	.
N#CC(C#N)=C1C=CC=CN1/C(=C\c1ccco1)C(=O)c1ccc(-c2ccccc2)cc1	.	5	.	.	.	.	.
N#CC(C#N)=C1C=CC=CN1/C(=C\c1ccco1)C(=O)c1ccc(Cl)cc1	.	105*	.	86*	.	-10	3%
Nc1nc(=S)c2[nH]cnc2[nH]1	9	-16	8	61*	-7	-15	3%

One compound at a time (already shown). Screens in order: PglD inh | LGR2 inh | Yeast UUG start | EWS-Fli block | miR-122 sensor | CFTR F508del cor | DNA binding
O=S(=O)(NCCc1ccc(F)cc1)c1ccc(F)cc1Br in the list: 3 | 16 | -8 | -1 | 81 | -2 | .
O=C(NC1CCCCC1)c1cc(-c2cccs2)on1 in the list: -5 | -44 | -8 | -97 | -8 | -3 | .
COCCn1c(N)c(N(Cc2ccccc2)C(=O)c2cc(=O)[nH]c3ccccc23)c(=O)[nH]c1=O in the list: 0 | -4 | -6 | 4 | -7 | -10 | .
O=C(Nc1ccc(F)cc1F)NC1CCCc2ccccc21 (configuration not stated) in the list: 5 | 12 | 5 | -1 | 1 | -1 | .

(more compounds)
canonical_smiles	PglD inh	LGR2 inh	Yeast UUG start	EWS-Fli block	miR-122 sensor	CFTR F508del cor	DNA binding
O=S(=O)(c1cccc(F)c1)N1CCC(CO)(Cc2cccc(F)c2)CC1	.	7	.	8	.	1	.
O=C1c2ccccc2C(=O)c2cc(N3CCCCC3)ccc21	7	97*	-55	83*	.	1	-10%
c1ccc2cc(N3CCCCC3)ccc2c1	-1	-37	-19	-38	-2	3	.
CCS(=O)(=O)c1ccc(C=NNc2nc3ccccc3o2)cc1	.	-63	.	-66	.	4	.
CN(C)c1ccc(/C=N/Nc2nc3ccccc3o2)cc1	-2	67*	-27	68*	5	.	-7%
O=C(NC[C@H]1[C@@H](c2ccccc2)[C@H](CO)N1C(=O)Cc1cccnc1)C1CC1	1	5	-7	-4	-14[16.7 µM]	3	.
CCN(CC)c1ccc(C2NC(=O)c3ccccc3N2)cc1 (configuration not stated)	.	88*	.	62*	3	-5	6%
O=C(COc1cc2oc(=O)cc(-c3ccccc3)c2cc1Cl)NCCN1CCOCC1	-3	-13	-1	7	4	3	.
O=c1c2ccccc2nc(/C=C/c2cc(Br)ccc2O)n1CCCO	4	26	-8	53*	.	-2	2%
O=c1c2ccccc2nc(/C=C/c2cccc([N+](=O)[O-])c2)n1CCO	.	12	.	15	.	5	.
Cc1ccccc1S(=O)(=O)N1C[C@H]2CON(C)[C@H]2C[C@H]1c1cccc(Br)c1	2	-2	-7	-1	-2	-3	.
Cc1ccc(N2C(=O)c3cccc4c(N)ccc(c34)C2=O)c2cccnc12	4	-1	-2	60*	25	-4	-6%
COCCN1C(=O)N(c2cccc(OC)c2)C(=O)C1CC(=O)Nc1ccc(Cl)cc1 (configuration not stated)	0	-17	4	9	11	0	.
O=C(NC(c1ccc(F)cc1)c1ccc2ccccc2n1)C1CCN(Cc2ccc3ccccc3n2)CC1 (configuration not stated)	1	-16	-7	12	-7	0	.
O=C(NC(c1ccc(F)cc1)c1ccc2ccccc2n1)C1CCN(Cc2cccc(C(F)(F)F)c2)CC1 (configuration not stated)	1	33	2	58*	-19	-3	4%

(continued)
Short keys – A = PglD inh; B = LGR2 inh; C = Yeast UUG start; D = EWS-Fli block; E = miR-122 sensor; F = CFTR F508del cor; G = DNA binding
> O=C(CCCN1C(=O)S/C(=C\c2ccccc2)C1=O)NNC(=O)c1ccccc1O
  A: .; B: -23; C: .; D: 74*; E: 2; F: -2; G: 13%
> O=C(CCCN1C(=O)/C(=C/c2ccccc2Cl)SC1=S)NNC(=O)c1ccc(Cl)cc1Cl
  A: .; B: 16; C: .; D: 72*; E: .; F: 0; G: 4%
> O=C(CCCN1C(=O)/C(=C/c2ccccc2Cl)SC1=S)NNC(=O)c1ccccc1
  A: -5; B: 30; C: -11; D: 45; E: -1; F: -1; G: .
> O=C(CN1CCOCC1)Nc1ccc2c(c1)CCC2
  A: 3; B: -3; C: -11; D: -22; E: 10; F: 2; G: .
> O=C(COC(=O)c1ccc[nH]c1=O)Nc1ccc(N2CCCCC2)cc1
  A: 6; B: -7; C: -2; D: 75*; E: 3; F: 1; G: -11%
> COc1ccccc1CN(C)C[C@@H]1OCc2ccccc2-c2c(n(C)c3ccccc23)C(=O)N([C@H](C)CO)C[C@@H]1C
  A: .; B: -17; C: .; D: -1; E: .; F: -2; G: .
> CC(=O)Nc1cccc(-c2ccnc3c2CC(C)(C(=O)NCc2ccc(N(C)C)cc2)O3)c1 (configuration not stated)
  A: 4; B: -2; C: -5; D: 54*; E: 14; F: 0; G: -15%
> N#C[C@H]1[C@H](c2ccc(-c3ccccc3F)cc2)[C@@H](CO)N1C(=O)Cc1ccccc1
  A: -2; B: -26; C: -16; D: 62*; E: .; F: 6; G: 11%
> CO[C@@H](CN(C)C(=O)c1ccc2c(c1)OCO2)[C@H](C)CN([C@@H](C)CO)S(=O)(=O)c1ccccc1
  A: 0; B: 3; C: .; D: -6; E: .; F: -1; G: .
> CCOC(=O)N(C)C[C@H]1OCc2cnnn2CCCC(=O)N([C@@H](C)CO)C[C@@H]1C
  A: 9; B: -2; C: -22; D: 4; E: 0; F: -2; G: .
> COc1cccc(O)c1CN1CCC(C(=O)Nc2ccc(-c3cccc(C)c3)cc2)CC1
  A: 8; B: 5; C: -2; D: 58*; E: -9; F: -10; G: 5%
> COc1cccc(O)c1CN1CCC(C(=O)Nc2ccc(Oc3cccnc3)cc2)CC1
  A: 9; B: 16; C: -2; D: 27; E: -7; F: 0; G: .
> CC(C)NC(=O)N(C)C[C@H]1Oc2ncc(C#CCC3CCCC3)cc2C(=O)N([C@@H](C)CO)C[C@@H]1C
  A: 4; B: 6; C: -5; D: 13; E: 16[16.7 µM]; F: -1; G: .
> O=C1CCCC/C1=C/Nc1cccc(C(F)(F)F)c1
  A: .; B: -5; C: .; D: -22; E: .; F: 1; G: .
> O=C1CCC2S/C(=C/Nc3ccc(C(F)(F)F)cc3)C(=O)N12 (configuration not stated)
  A: .; B: -33; C: .; D: 86*; E: 1; F: -1; G: -1%
